Measured values reported in ChEMBL document CHEMBL1144895, “Synthesis and anticonvulsant activity of novel bicyclic acidic amino acids” (J Med Chem, 2003).

By UniProt entry, the sequences of proteins in these tests, tags left out. Where a name states a change or a piece, a line headed by the entry shows the natural chain unless it says otherwise.
UniProt P23385: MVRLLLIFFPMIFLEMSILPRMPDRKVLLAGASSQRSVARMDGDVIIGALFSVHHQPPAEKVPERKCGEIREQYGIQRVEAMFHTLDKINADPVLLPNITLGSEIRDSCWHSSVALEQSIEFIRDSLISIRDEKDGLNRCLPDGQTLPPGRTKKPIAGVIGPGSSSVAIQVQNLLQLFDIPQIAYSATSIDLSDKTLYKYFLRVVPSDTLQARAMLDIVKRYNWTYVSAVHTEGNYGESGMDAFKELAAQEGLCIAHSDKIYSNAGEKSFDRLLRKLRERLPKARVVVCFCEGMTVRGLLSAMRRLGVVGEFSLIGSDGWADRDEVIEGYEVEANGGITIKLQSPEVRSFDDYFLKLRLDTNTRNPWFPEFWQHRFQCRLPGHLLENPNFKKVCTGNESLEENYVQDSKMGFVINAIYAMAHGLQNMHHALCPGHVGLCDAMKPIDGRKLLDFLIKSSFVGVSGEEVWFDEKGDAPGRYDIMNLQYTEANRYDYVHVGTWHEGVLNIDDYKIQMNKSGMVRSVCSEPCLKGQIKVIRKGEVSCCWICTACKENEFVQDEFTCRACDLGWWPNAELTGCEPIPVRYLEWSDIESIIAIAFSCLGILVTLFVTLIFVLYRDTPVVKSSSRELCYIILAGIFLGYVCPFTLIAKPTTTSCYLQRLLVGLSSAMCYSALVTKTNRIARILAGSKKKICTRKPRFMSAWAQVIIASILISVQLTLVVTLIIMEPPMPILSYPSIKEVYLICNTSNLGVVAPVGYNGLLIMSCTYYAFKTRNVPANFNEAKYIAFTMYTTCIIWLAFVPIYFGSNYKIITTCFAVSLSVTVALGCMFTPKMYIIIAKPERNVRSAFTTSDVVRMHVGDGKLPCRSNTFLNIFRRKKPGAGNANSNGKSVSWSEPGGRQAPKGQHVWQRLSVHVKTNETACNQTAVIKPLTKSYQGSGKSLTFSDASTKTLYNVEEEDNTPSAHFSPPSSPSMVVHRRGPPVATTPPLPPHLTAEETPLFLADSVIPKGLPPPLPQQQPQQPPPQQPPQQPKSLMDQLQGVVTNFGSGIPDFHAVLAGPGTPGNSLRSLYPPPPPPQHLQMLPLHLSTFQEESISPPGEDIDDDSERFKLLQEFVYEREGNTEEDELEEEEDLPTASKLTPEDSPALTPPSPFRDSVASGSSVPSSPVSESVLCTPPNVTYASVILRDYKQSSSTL

Target: Metabotropic glutamate receptor 1 (Rattus norvegicus, UniProt P23385)
Assay: Activity tested at cloned rat Metabotropic glutamate receptor 1 expressed in Chinese Hamster Ovary (CHO) cells
Format: functional, cell-based

N[C@@]1(C(=O)O)CC[C@@H](C(=O)O)C1 (racemic)
EC50: 15 µM
